Test results from patent publication US20090203718A1, “CANCER TREATMENT METHOD” (SmithKline Beecham (Cork) Ltd., priority 2006, published 2009).

Columns and labels:
Format in all cases: cell-based, human
Details in all cases: agent alone, 24 h
[1] = system: A549 cells; test: Cell proliferation, BrdU ELISA and Celltiter Glo (FIG. 1)
[2] = system: Colo205 cells; test: Cell proliferation, BrdU ELISA and Celltiter Glo (FIG. 2)
Method: (§1) A549 cells were grown in RPMI-1640 supplemented with 25 mM HEPES, 10 mM glutamine and 10% fetal bovine serum and maintained at 37° C. and 5% CO2 in a humid incubator. Colo205 and MDA-MB-468 cells were grown in DMEM supplemented with 25 mM HEPES, 10 mM glutamine, 4.5 g/L d-glucose, and 10% fetal bovine serum. Assays were performed in 96 well microtiter plates with optimum seeding densities for each cell line.
(§2) Cell proliferation was measured using the Celltiter Glo® Luminescent Cell Viability Assay available from Promega Corporation and the Roche BrdU Cell Proliferation ELISA assay.
(§3) Cell death was measured using the Roche Cell Death ELISA^Plus kit and Promega Apo-ONE™ Homogeneous Caspase-3/7 Assay. Total cell number was measured using the Celltiter Glo® Luminescent Cell Viability Assay and cell proliferation was measured with the Roche BrdU Cell Proliferation ELISA assay.

[3] = system: MDA-MB-468 cells; test: Cell proliferation, BrdU ELISA and Celltiter Glo (FIG. 3)
Method: as §1, §2, §3

Measured: cell proliferation

CS(=O)(=O)CCNCc1ccc(-c2ccc3ncnc(Nc4ccc(OCc5cccc(F)c5)c(Cl)c4)c3c2)o1 [GW572016, N-{3-Chloro-4-[(3-fluorobenzyl)oxy]phenyl}-6-[5-({[2-(methanesulphonyl)ethyl]amino}methyl)-2-furyl]-4-quinazolinamine ditosylate monohydrate]
decreased cell proliferation: all assays above
